The list shows a part of the results, in another mix than the full data. Some tests of the compounds listed are not included; inactive here does not mean inactive elsewhere. Records with an inconclusive call do not appear. Calls of active or inactive are those of the source. Calls come from the whole dose curve; as a rule, active = well fitted inhibition curve with a large enough effect in the signal ratio, with a control signal flat (not every such curve was filed as active); inconclusive = small, poorly fitted or top-dose-only effect, or effect the other way, or a change in a side signal; inactive = no such curve, though single readings can be large or run the other way; the % refers to the signal ratio.
The molecules below were run against Muscleblind-like protein 1 (Homo sapiens) (UniProt Q9NR56) (assay: qHTS Assay for Inhibitors of MBNL1-poly(CUG) RNA binding). Settings: TR-FRET MBNL1-His/biotin-(CUG)12 binding, 665/545 ratio; at 57.5 µM (top of the series).
% is set by controls: 0 for no effect and ±100 for the full control effect.

Chains of the proteins cited; added tags and fusions are not shown.
UniProt Q9NR56, whole entry: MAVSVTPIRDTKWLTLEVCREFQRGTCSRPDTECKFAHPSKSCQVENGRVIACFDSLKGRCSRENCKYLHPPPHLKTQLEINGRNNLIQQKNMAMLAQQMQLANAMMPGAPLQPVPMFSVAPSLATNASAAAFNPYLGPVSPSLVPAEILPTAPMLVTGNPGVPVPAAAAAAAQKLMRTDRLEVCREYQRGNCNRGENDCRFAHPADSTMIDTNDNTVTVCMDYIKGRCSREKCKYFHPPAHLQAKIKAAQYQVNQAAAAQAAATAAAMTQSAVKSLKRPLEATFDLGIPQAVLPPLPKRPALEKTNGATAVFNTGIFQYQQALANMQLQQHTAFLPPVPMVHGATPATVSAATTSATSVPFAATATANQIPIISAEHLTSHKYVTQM

SMILES	activity change, negative = inhibition
O=C(NCC1(N2CCCCC2)CCCCC1)c1cccc(Cl)c1	inactive: 1.55%
COc1cccc(C(=O)NCC2(N3CCCCC3)CCCCC2)c1	inactive: -7.64%
COc1ccc(Cl)cc1C(=O)NCC1(N(C)C)CCCCC1	inactive: -3.22%
CN(C)C1(CNC(=O)c2ccc(Br)cc2)CCCCC1	inactive: -0.239%
CC(C)Oc1ccc(C(=O)NCC2(N(C)C)CCCCC2)cc1	inactive: -4.6%
CN(C)c1cccc(C(=O)NCC2(N(C)C)CCCCC2)c1	inactive: -9.86%
O=C(OC1CN2CCC1CC2)C(CO)(c1ccccc1)c1ccccc1 (configuration not stated)	inactive: -4.48%
Cc1ccc(C(=O)NCC2(N3CCCCC3)CCCCC2)cc1	inactive: -5.66%
CCN(CC)CC(C)C(C)OC(=O)C(O)(c1ccccc1)c1ccccc1 (configuration not stated)	inactive: 1.31%
COc1cc(SC)ccc1C(=O)NCC1(N(C)C)CCCCC1	inactive: -1.04%
CC(C)N1C(=O)CC2(CCN(CCOC(=O)C(O)(c3ccccc3)c3ccccc3)CC2)C1=O	inactive: -1.24%
CN1[C@@H]2CC[C@H]1CC(OC(=O)C(O)(c1ccccc1)c1ccccc1)C2 (some centres not stated)	inactive: -2.82%
O=C(NCC1(N2CCCCC2)CCCCC1)c1cc([N+](=O)[O-])ccc1Cl	inactive: 15.8%
COc1ccc(C(=O)NCC2(N(C)C)CCCCC2)cc1	inactive: 0.695%
Cc1cc(C(=O)NCC2(N3CCCCC3)CCCCC2)ccc1[N+](=O)[O-]	inactive: 5.98%
CCN1CCCC(OC(=O)C2(O)c3ccccc3C=Cc3ccccc32)C1 (configuration not stated)	inactive: 2.47%
O=C(NCC1(N2CCCCC2)CCCCC1)c1cccc(Br)c1	inactive: -5.83%
C=CCN1CCN(CCOC(=O)C(O)(c2ccccc2)c2ccccc2)CC1	inactive: -8.73%
O=C(NCC1(N2CCCCC2)CCCCC1)c1cc(F)c(F)cc1Cl	inactive: -3.53%
Cc1ccccc1C(=O)NCC1(N2CCCCC2)CCCCC1	inactive: -2.69%
CN(C)C1CCCC1OC(=O)C(O)(c1ccccc1)c1ccccc1 (configuration not stated)	inactive: -7.84%
CN(C)c1ccc(C(=O)NCC2(N(C)C)CCCCC2)cc1	inactive: -10.8%
